Data taken from ChEMBL document CHEMBL3425429.

Columns and labels:
[1] = system: NCI-H358; assay: Cytotoxicity against human NCI-H358 cells assessed as cell viability after 72 hrs by MTT assay; assay type: functional, cell-based; settings: NCI-H358, 72 h
[2] = system: HeLa; assay: Cytotoxicity against human HeLa cells assessed as cell viability after 72 hrs by MTT assay; assay type: functional, cell-based
[3] = system: THP-1; assay: Cytotoxicity against human THP1 cells assessed as cell viability after 72 hrs by MTT assay; assay type: functional, cell-based; settings: THP-1, 72 h
[4] = Cytotoxicity against human SKBR3 cells assessed as cell viability after 72 hrs by MTT assay; assay type: functional, cell-based; settings: SK-BR-3, 72 h
[5] = Cytotoxicity against human MM1S cells assessed as cell viability after 72 hrs by MTT assay; assay type: functional, cell-based; settings: MM1.S
[6] = Cytotoxicity against human U87MG cells assessed as cell viability after 72 hrs by MTT assay; assay type: functional, cell-based, U-87MG ATCC; settings: U-87 MG
[7] = Cytotoxicity against human PANC1 cells assessed as cell viability after 72 hrs by MTT assay; assay type: functional, cell-based; settings: PANC-1, 72 h
[8] = system: HepG2; assay: cells; settings: Homo sapiens, HepG2, 72 h
[9] = system: A2058; assay: Cytotoxicity against human A2058 cells assessed as cell viability after 72 hrs by MTT assay; assay type: functional, cell-based; settings: A2058, 72 h
[10] = Cytotoxicity against human OCI-LY10 cells assessed as cell viability after 72 hrs by MTT assay; assay type: functional, cell-based; settings: OCI-Ly10, 72 h

CCn1nc(C#Cc2cc(C(=O)Nc3ccc(CN4CCN(C)CC4)c(C(F)(F)F)c3)ccc2C)c2c(N)ncnc21
IC50 [1]: 1.67 µM
IC50 [2]: 5.41 µM
IC50 [3]: 5.11 µM
IC50 [4]: 4.52 µM
IC50 [5]: 0.872 µM
IC50 [6]: 0.742 µM
IC50 [7]: 6.56 µM
IC50 [8]: 8.67 µM
IC50 [9]: 1.91 µM
IC50 [10]: 2.17 µM
